Assay results as given in publication PMC8802890, “Identification of U937^JAK3-M511I Acute Myeloid Leukemia Cells as a Sensitive Model to JAK3 Inhibitor” (Frontiers in Oncology, 2022).

Chains of the proteins cited; added tags and fusions are not shown. Lines headed by an entry give the natural chain unless they say otherwise; changes in a name come on top.
UniProt O60674: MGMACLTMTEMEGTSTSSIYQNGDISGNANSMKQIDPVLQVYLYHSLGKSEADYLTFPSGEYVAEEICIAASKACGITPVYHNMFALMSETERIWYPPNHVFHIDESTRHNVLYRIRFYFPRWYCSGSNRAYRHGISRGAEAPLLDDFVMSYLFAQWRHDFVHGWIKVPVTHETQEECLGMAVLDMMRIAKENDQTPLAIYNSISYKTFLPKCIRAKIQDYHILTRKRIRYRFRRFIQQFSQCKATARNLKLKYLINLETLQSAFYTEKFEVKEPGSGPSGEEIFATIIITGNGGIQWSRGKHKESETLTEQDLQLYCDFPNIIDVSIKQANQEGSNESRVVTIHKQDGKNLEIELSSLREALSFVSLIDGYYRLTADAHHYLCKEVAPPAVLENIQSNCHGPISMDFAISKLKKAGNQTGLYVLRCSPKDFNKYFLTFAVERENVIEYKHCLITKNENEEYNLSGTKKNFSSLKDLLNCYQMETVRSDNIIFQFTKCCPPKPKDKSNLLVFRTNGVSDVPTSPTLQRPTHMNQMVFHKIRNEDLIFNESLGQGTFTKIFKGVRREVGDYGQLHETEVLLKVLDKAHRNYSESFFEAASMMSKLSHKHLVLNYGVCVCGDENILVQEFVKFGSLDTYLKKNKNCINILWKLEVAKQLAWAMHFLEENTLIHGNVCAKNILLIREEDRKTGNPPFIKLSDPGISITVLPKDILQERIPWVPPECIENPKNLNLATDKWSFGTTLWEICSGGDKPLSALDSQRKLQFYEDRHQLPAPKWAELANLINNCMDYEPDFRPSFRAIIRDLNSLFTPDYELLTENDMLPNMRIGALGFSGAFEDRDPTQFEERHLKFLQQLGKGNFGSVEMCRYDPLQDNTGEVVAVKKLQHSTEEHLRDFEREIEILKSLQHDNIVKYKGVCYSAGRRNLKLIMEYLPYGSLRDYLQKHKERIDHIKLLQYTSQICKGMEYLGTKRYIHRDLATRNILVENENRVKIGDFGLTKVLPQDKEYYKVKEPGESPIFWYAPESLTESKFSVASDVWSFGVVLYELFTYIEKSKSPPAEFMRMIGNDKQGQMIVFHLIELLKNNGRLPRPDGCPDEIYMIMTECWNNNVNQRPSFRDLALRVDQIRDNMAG

Target: T1, JAK2 (Homo sapiens, UniProt O60674)
T1 construct: purchased Invitrogen (Waltham, MA, USA)
Test: Z'-Lyte kinase assay, JAK2
Assay type: biochemical

Structure (SMILES) | IC50 [nM] | potency against JAK2 less than against JAK3
CCS(=O)(=O)N1CC(CC#N)(n2cc(-c3ncnc4[nH]ccc34)cn2)C1 [Baricitinib] | 8.6 ± 2.3 | –
C=CC(=O)N1C[C@H](Nc2ncnc3[nH]ccc23)CC[C@@H]1C [PF-06651600, ritlecitinib] | – | ~5,700 fold
